Reference: PubChem BioAssay AID2205 (University of Pittsburgh Molecular Library Screening Center, 2009)
The list shows a part of the results, in another mix than the full data. Some tests of the compounds listed are not included; inactive here does not mean inactive elsewhere. The source made the active and inactive calls.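 Rule for the calls: active = plate Z-score above 3 for both tubulin-high and condensed-nucleus cell shares, with cell loss under 80%, at 10 µM; inactive = the rest, inconclusive results apart.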

Assay: tubulin staining increase by stabilizing compounds – imaging, high-content imaging, primary screen (AID 2205)
Settings: HeLa tubulin immunostaining HCS, 24 h; at 10 µM; hits give high values; share of cells brighter than vehicle mean+2SD
In the case of `COc1cccc(C(=O)NCC2(N3CCCCC3)CCCCC2)c1`, the % tubulin-high responders is reported as inactive: 3.88%.
In the case of `CN(C)c1cccc(C(=O)NCC2(N(C)C)CCCCC2)c1`, the % tubulin-high responders is reported as inactive: 3.93%.
With `O=C(OC1CN2CCC1CC2)C(CO)(c1ccccc1)c1ccccc1` (centres undefined) the % tubulin-high responders was inactive: 2.96%.
For `CC(C)N1C(=O)CC2(CCN(CCOC(=O)C(O)(c3ccccc3)c3ccccc3)CC2)C1=O`, the % tubulin-high responders was inactive: 2.01%.
With `O=C(NCC1(N2CCCCC2)CCCCC1)c1cc([N+](=O)[O-])ccc1Cl` the % tubulin-high responders was inactive: 2.32%.
In the case of `C=CCN1CCN(CCOC(=O)C(O)(c2ccccc2)c2ccccc2)CC1`, the % tubulin-high responders is reported as inactive: 1.08%.
In the case of `CCN1CCCC(OC(=O)C2(O)c3ccccc3C=Cc3ccccc32)C1` (centres undefined), the % tubulin-high responders is reported as inactive: 2.97%.
With `CN(C)C1CCCC1OC(=O)C(O)(c1ccccc1)c1ccccc1` (centres undefined) the % tubulin-high responders was inactive: 3.95%.
With `Cc1ccccc1C(=O)NCC1(N2CCCCC2)CCCCC1` the % tubulin-high responders was inactive: 1.55%.
